US5663157A, “22-en-25-oxa derivatives in the vitamin D series, process for their production, pharmaceutical preparations containing these derivatives as well as their use as pharmaceutical agents” (Schering Aktiengesellschaft, priority 1992, dated 1997)

Settings: calcitriol 2 μg/kg s.c., 22 hours after administration; solvent control 3.0 mmol/l

## C=C1/C(=C\C=C2/CCC[C@]3(C)[C@@H]([C@H](C)CCCC(C)(C)O)CC[C@@H]23)C[C@@H](O)C[C@@H]1O [calcitriol, 1α,25-Dihydroxycholecalciferol, reference compound]
  serum calcium concentration: 3.2 mmol/L
